Data as given in PubChem BioAssay (NCI).
The list shows a part of the results, in another mix than the full data.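 Step 1: grow cells in 96-well plates. Step 2: add test compound at a single concentration. Step 3: incubate 48 h. Step 4: record percent growth.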 The source made the active and inactive calls. Rule for the calls: active = growth percent below 10; inactive = the rest.

Experiments:
Assay in all cases: NCI-60 one-dose screen, 48 h (100 = growth as untreated, 0 = no growth, -100 = all killed)
Details in all cases: 10 µM
[1] = tested on: NCI/ADR-RES ovarian
[2] = tested on: T-47D breast
[3] = tested on: BT-549 breast
[4] = tested on: MDA-MB-435 melanoma
[5] = tested on: SW-620 colon
[6] = tested on: MCF7 breast
[7] = tested on: HCT-116 colon
[8] = tested on: HCC-2998 colon
[9] = tested on: KM12 colon

Measured: growth

Oc1ccc(N(CCCl)CCCl)cc1
inactive: [1] 92.4% | [2] 105% | [3] 90.3% | [4] 117% | [5] 80% | [6] 56.7% | [7] 78.3% | [8] 83.2% | [9] 109%

BrCCN(CCBr)c1ccc2c(c1)Cc1ccccc1-2
inactive: [1] 42.7% | [2] 42.8% | [4] 52.4% | [5] 41.8% | [6] 19.8% | [7] 32.9% | [8] 71% | [9] 54.4%

O=c1[nH]cc(CN(CCCl)CCCl)c(=O)[nH]1
inactive: [1] 105% | [2] 101% | [3] 100% | [4] 104% | [5] 96.9% | [6] 99.4% | [7] 102% | [9] 103%

Cc1ccc(N(CCCl)CCCl)cc1
inactive: [1] 67.5% | [2] 72.2% | [4] 85.8% | [5] 52.7% | [7] 63.1% | [8] 84.6% | [9] 101%

Cc1ccccc1NC1(C#N)CCN(Cc2ccccc2)CC1
inactive: [1] 103% | [2] 98.9% | [3] 87.7% | [4] 110% | [5] 102% | [7] 98.2% | [8] 95.7% | [9] 104%

NC(=O)C1(Nc2ccccc2)CCNCC1
inactive: [1] 103% | [2] 101% | [3] 102% | [4] 103% | [5] 106% | [6] 98.3% | [7] 101% | [8] 97.6% | [9] 99.1%

N#CC(C#N)=Cc1ccc(N(CCCl)CCCl)cc1
inactive: [1] 76.3% | [2] 67.1% | [3] 79.2% | [4] 97.5% | [5] 89.5% | [6] 59.3% | [7] 76.4% | [8] 96% | [9] 94.3%

CC1(C)NC(=O)N(CCN(CCCl)CCCl)C1=O
inactive: [1] 109% | [2] 97.2% | [3] 109% | [4] 109% | [5] 107% | [6] 98.6% | [7] 107% | [8] 106% | [9] 108%

ClCCN(CCCl)Cc1nc2cc(Cl)c(Cl)cc2[nH]1
inactive: [2] 63.9% | [3] 74.4% | [4] 91.1% | [5] 58.5% | [6] 41.8% | [7] 68.7% | [9] 88.1%

Oc1ccc(Br)cc1CN(CCCl)CCCl
inactive: [1] 54.8% | [2] 49.4% | [3] 65.3% | [4] 79.3% | [5] 60.1% | [6] 28.9% | [7] 46.1% | [8] 73.3% | [9] 83%
